{
  "source": "patent US6809110B2",
  "about": "(Hoffmann-La Roche Inc., priority 2002, dated 2004)",
  "key": {"[1]": {"biological_target": "T1, PPARα (Homo sapiens, UniProt Q07869)", "T1 sequence (Q07869 167-468 limits assumed)": "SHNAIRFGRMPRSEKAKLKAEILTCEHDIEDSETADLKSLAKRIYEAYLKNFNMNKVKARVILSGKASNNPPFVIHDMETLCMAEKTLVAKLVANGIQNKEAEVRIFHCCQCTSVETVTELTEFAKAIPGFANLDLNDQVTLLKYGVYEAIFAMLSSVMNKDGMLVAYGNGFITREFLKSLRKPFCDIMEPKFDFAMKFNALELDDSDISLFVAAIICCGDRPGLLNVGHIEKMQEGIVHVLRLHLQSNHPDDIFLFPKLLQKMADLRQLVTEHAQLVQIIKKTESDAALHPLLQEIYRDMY", "experiment": "PPARα radioligand binding assay (SPA, GST-PPARα-LBD fusion protein)", "design": "PPARγ (aa 174 to 476) and PPARα (aa 167 to 469); made in house; host or cells: E. coli BL21(pLysS)", "settings": "SPA beads", "text": "(§1) Full-length cDNA clones for human PPARα and mouse PPARγ were obtained by RT-PCR from human adipose and mouse liver cRNA, respectively, cloned into plasmid vectors and verified by DNA sequencing. […] To accomplish this, the portions of the cloned sequences encoding the LBDs were amplified from the full-length clones by PCR and then subcloned into the plasmid vectors. Final clones were verified by DNA sequence analysis.\nInduction, expression, and purification of GST-LBD fusion proteins were performed in E. coli strain BL21(pLysS) cells by standard methods (Ref: Current Protocols in Molecular Biology, Wiley Press, edited by Ausubel et al.).\nPPARα receptor binding was assayed in TKE50 (50 mM Tris-HCl, pH 8, 50 mM KCl, 2 mM EDTA, 0.1 mg/ml fatty acid-free BSA and 10 mM DTT). […] For radioligand binding e.g. 10000 dpm of 2(S)-(2-benzoyl-phenylamino)-3-{4-[1,1-ditritio-2-(5-methyl-2-phenyl-oxazol-4-yl)-ethoxy]-phenyl}-propionic acid or 2,3-ditritio-2(S)-methoxy-3-(4-(2-(5-methyl-2-phenyl-oxazol-4-yl)-ethoxy]-benzo[b]thiophen-7-yl}-propionic acid in 50 ul were added, the reaction incubated at RT for 1 h and scintillation proximity counting performed. All binding assays were performed in 96 well plates and the amount of bound ligand measured on a Packard TopCount using OptiPlates (Packard). Nonspecific binding was determined in the presence of 10^−4 M unlabelled compound. […]"}, "[2]": {"biological_target": "T1, PPARα", "experiment": "Luciferase transcriptional reporter gene assay, BHK21 cells transfected with pFA-PPARα-LBD", "format": "cell-based", "design": "PPARα (aa 167 to 469)", "settings": "24 hours incubation", "method": "as §1\nBaby hamster kidney cells (BHK21 ATCC CCL10) were grown in DMEM medium containing 10% FBS at 37° C. in a 95%02:5%CO2 atmosphere. Cells were seeded in 6 well plates at a density of 10^5 Cells/well and then batch-transfected with either the pPA-PPARγ-LBD or pFA-PPARα-LBD expression plasmids plus a reporter plasmid and an expression plasmid encoding the secretable form of alkaline phosphatase (SEAP) as a normalization control. […] Following incubation of the cells for 24 hours with substances, 50 ul of the supernatant was recovered and analyzed for SEAP activity (Roche Molecular Biochemicals). […] Luminescence for both SEAP and luciferase was measured in a Packard TopCount. Luciferase activity was normalized to the SEAP control and transcriptional activation in the presence of a test substance was expressed as fold-activation over cells incubated in the absence of the substance. EC50 values were calculated using the XLfit program (ID Business Solutions Ltd. UK)."}},
  "data": [
    {"smiles": "CN(CCOc1ccc(CC2SC(=O)NC2=O)cc1)c1ccccn1", "note": "(centres unmarked) [Rosiglitazone, reference compound]", "values": [
      {"measurement": "PPARα IC50", "setting": "[1]", "value": "inactive"},
      {"measurement": "PPARα EC50", "setting": "[2]", "value": "inactive"}
    ]}
  ]
}
